The target of the experiment is T1, ACKR3 (Homo sapiens, UniProt P25106).
T1 construct: expressed in transfected cells; host or cells: HEK293T
Nature of the experiment: β-arrestin-2 recruitment to ACKR3, nanoluciferase complementation (NanoBiT) in HEK cells. Particulars: concentration range up to 9 μM. In kind it is cell-based. Here is the method: Ligand-induced recruitment of β-arrestin, miniGi or miniGq proteins (engineered GTPase domain of Gα subunit)[46],[47] to the receptors was monitored using NanoBiT technology (Promega), as previously described.[27],[48] HEK293T cells (5 × 10^6 cells) were seeded in 10 cm dishes, and 24 h later, the cells were cotransfected with pNBe plasmids encoding the receptor C-terminally fused to SmBiT and β-arrestin, miniGi, or miniGq N-terminally fused to LgBiT. After 24 h, the cells were detached and incubated for 25 min at 37 °C with Nano-Glo Live Cell substrate diluted 200-fold, distributed into white 96-well plates (1 × 10^5 cells/well), and treated with the indicated concentrations of peptides. Luminescence was recorded during 20 min with a Mithras LB940 luminometer (Berthold Technologies). For the concentration–response curves, the signal recorded with a saturating concentration of full agonist for each receptor was set as 100%. For receptor screening experiments, results were expressed as fold vehicle, and an agonist chemokine (100 nM) listed in the IUPHAR repository of chemokine receptor ligands was included as a positive control for each receptor.
Concentration–response curves were fitted to the four-parameter Hill equation using an iterative, least-squares method (GraphPad Prism version 8.0.1). […]

The chains behind the UniProt entries cited, without tags or fusion partners. Where a name states a change or a piece, a line headed by the entry shows the natural chain unless it says otherwise.
UniProt P25106: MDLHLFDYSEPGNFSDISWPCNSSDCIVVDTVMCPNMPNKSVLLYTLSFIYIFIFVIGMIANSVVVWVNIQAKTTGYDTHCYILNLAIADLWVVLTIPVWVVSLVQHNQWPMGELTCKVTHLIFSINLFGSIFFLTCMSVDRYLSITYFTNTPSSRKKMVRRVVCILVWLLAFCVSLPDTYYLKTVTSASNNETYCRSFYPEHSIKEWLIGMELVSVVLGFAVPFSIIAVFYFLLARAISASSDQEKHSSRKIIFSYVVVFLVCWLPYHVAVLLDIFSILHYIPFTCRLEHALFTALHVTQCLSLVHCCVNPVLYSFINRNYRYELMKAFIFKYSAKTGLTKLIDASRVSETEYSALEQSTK

The structures appear in SMILES notation.

For `CC(C)C[C@H](NC(=O)CNC(=O)[C@H](C)NC(=O)[C@H](CC(C)C)NC(=O)[C@H](CCCNC(=N)N)NC(=O)[C@H](Cc1c[nH]cn1)NC(=O)[C@@H](NC(=O)[C@@H](NC(=O)[C@@H]1CSSC[C@H](NC(=O)[C@H](C)N)C(=O)N[C@@H](CC(=O)O)C(=O)N[C@@H]([C@@H](C)O)C(=O)N[C@@H](C)C(=O)N[C@@H]([C@@H](C)O)C(=O)N1)C(C)C)[C@@H](C)O)C(=O)N[C@@H](CC(C)C)C(=O)N[C@@H](CO)C(=O)N[C@@H](CCCNC(=N)N)C(=O)N[C@@H](CO)C(=O)NCC(=O)NCC(=O)N[C@H](C(=O)N[C@H](C(=O)N[C@@H](CCCCN)C(=O)N[C@@H](CC(N)=O)C(=O)N[C@@H](CC(N)=O)C(=O)N[C@@H](Cc1ccccc1)C(=O)N[C@H](C(=O)N1CCC[C@H]1C(=O)N[C@H](C(=O)N[C@@H](CC(N)=O)C(=O)N[C@H](C(=O)NCC(=O)N[C@@H](CO)C(=O)N[C@@H](CCCCN)C(=O)N[C@@H](C)C(=O)N[C@@H](Cc1ccccc1)C(N)=O)C(C)C)[C@@H](C)O)C(C)C)C(C)C)C(C)C` [α-CGRP, reference compound], the “activity toward ACKR3 (β-arrestin-2 recruitment), in words” value was “No activity”.
